These are literature values, as cited in paper PMC10304291, “THC-Reduced Cannabis sativa L.—How Does the Solvent Determine the Bioavailability of Cannabinoids Given Orally?” (Nutrients, 2023).

On the set-up of the data set: method as in PMID 21796370. To be noted: Cremophor-based studies; cited from earlier work.

Each structure is given as a SMILES string.

As to `C=C(C)[C@@H]1CCC(C)=C[C@H]1c1c(O)cc(CCCCC)cc1O` [CBD, cannabidiol], the brain/whole-blood ratio is reported as 2.64.
